The results in this text go back to patent US4916223A, “Substituted hexahydroarylquinolizines” (Merck & Co., Inc., priority 1989, dated 1990).

For assay [1], the target named is T1, peripheral α2-adrenoceptors (Rattus norvegicus, UniProt P22909).
T1 construct: isolated, field-stimulated rat vas deferens is utilized as an in vitro model; from tissue; host or cells: rat vas deferens (isolated, field-stimulated)
T1 sequence (P22909 1-465): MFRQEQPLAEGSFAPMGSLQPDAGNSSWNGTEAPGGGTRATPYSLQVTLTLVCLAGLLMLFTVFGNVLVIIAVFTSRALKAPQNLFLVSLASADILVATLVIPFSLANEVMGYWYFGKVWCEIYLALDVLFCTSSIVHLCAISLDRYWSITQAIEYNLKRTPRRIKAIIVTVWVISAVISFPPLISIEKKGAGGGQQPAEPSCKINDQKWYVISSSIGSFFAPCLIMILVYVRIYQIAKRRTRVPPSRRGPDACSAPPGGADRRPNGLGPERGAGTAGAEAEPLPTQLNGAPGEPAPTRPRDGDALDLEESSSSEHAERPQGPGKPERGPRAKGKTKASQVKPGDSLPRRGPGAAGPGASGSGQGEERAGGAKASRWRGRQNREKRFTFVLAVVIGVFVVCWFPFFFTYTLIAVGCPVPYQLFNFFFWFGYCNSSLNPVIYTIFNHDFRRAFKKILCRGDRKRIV
As to the kind of experiment: In vitro field-stimulated rat vas deferens test: antagonism of clonidine (Schild analysis, pA2). Type of assay: cell-based. An excerpt:
In the test, isolated, field-stimulated rat vas deferens is utilized as an in vitro model to determine the potency and selectivity of compounds toward the various α-adrenoceptor subtypes. Selective α2 -adrenoceptor agonists such as clonidine reduce the magnitude of neurogenic contractions in the peripheral smooth muscle by reducing the stimulated release of norepinephine through the activation of presynaptic α2 -adrenoceptors on the noradrenergic nerve terminals.
The vas deferens from rats weighing 250-350 grams were freed of connective and fatty tissue and suspended between two platinum electrodes in an organ bath under 0.5 gram tension. The organ bath contained Tyrode's solution which was bubbled with 5% CO2 and 95% O2 and stimulated with square wave pulses at 0.1 Hz, 0.3 msec in duration and supramaximal voltage (30-50 V). Contractile responses were recorded. α2 -Agonist drug (clonidine) was added cumulatively to the bath and EC50 values determined by regression analysis. […] Computation of the pA2 value was performed using the formula: pA2 =pAx +log (x-1), where pAx is the negative logarithm of the molar concentration of antagonist and x is the dose ratio of EC50 values for the agonist before and after addition of the antagonist.

Another assay deals with central α2-adrenoceptors. The assay can be described thus: In vivo antagonism of clonidine-induced mydriasis. Also noted: species or system rat (Sprague-Dawley). The conditions noted are these: for Antagonism of Clonidine Induced Mydriasis (ED2X): anesthetized rats, pretreated 5 minutes before i.v. clonidine, dose causing doubling of clonidine ED50, N=4/group. On the procedure: Administration of clonidine to rat produces mydriasis by an α2 -adrenergic mechanism in the central nervous system as reported by Koss et al., Naunyl-Schmiedeberg's Arch. […] Ophthal. […] Antagonism of the mydriatic action of clonidine was used as an in vivo test to examine the ability of the compounds to penetrate the central nervous system and antagonize α2 -adrenoceptors in the rat.
Adult male Sprague-Dawley rats (250-450 g) were anesthetized with chloral hydrate (120-160 mg/kg i.p.), and a femoral vein was cannulated for drug administration. Body temperature was maintained at 37° C.±0.5. The eye was illuminated using a light with green filters to provide added contrast to aid in visualization of the iris. Pupil diameter was measured using a dissecting microscope containing an ocular micrometer with a resolution of 0.1 mm.
Five minutes was allowed to elapse between successive doses of clonidine, and pupil diameter was determined immediately prior to the injection of the next dose of clonidine. The dose of clonidine required to cause 50% of the maximum increase in diameter of the pupil was determined for each rat, using logarithmic linear regression analysis. […] The potency of antagonists was expressed as ED2X values, i.e. the calculated dose of antagonist required to cause a doubling in the ED50 value for clonidine.

In assay [2] the target is T1, peripheral α2-adrenoceptors. As to the kind of experiment: Peripheral versus central α2-adrenoceptor selectivity, vas deferens compared with mydriasis data. To be noted: relative to yohimbine.

Consider `CS(=O)(=O)NCCN1C(=O)NC[C@]12CCN1CCc3c(oc4ccccc34)[C@@H]1C2` [Arylquinolizine Compound A, (2R,12bS)-3'-(2-methanesulfonamidoethyl)-spiro-[1,3,4,6,7,12b-hexahydrobenzo[b]furo[2,3-a]quinolizin]-2,4'-imidazolidin-2'-one], for which the Kb in assay [1] (isolated field-stimulated rat vas deferens, agonist clonidine, antagonist at least 20 minutes contact) was 3.02 nM. The “higher affinity for α2-adrenoceptors than yohimbine” value in assay [1] (vas deferens data, relative to yohimbine) is reported as “seven”. Further, in the assay on central α2-adrenoceptors, the “Antagonism of Clonidine Induced Mydriasis (ED2X)” value is reported as 18.0 mg/kg i.v. The “less potent in eliciting a response mediated by central α2-adrenoceptors (mydriasis data)” value in the assay on central α2-adrenoceptors (relative to yohimbine) turned out to be 132 fold. For the same compound, the “more selective for the periphery than yohimbine” value in assay [2] is “about 900 times”.
On to `COC(=O)[C@@H]1[C@H]2C[C@H]3c4[nH]c5ccccc5c4CCN3C[C@@H]2CC[C@@H]1O` [Yohimbine, reference compound], for which the “Antagonism of Clonidine Induced Mydriasis (ED2X)” value in the assay on central α2-adrenoceptors is recorded as 0.136 mg/kg i.v.
